Measurements as given in patent EP4837901A1, “PHENYLTHIAZOLAMINE-BASED PI4KIIIß INHIBITOR, PREPARATION METHOD THEREFOR, PHARMACEUTICAL COMPOSITION THEREOF AND USE THEREOF” (dated 2026).

By UniProt entry, the sequences of proteins in these tests, tags left out.
UniProt Q9UBF8, whole entry: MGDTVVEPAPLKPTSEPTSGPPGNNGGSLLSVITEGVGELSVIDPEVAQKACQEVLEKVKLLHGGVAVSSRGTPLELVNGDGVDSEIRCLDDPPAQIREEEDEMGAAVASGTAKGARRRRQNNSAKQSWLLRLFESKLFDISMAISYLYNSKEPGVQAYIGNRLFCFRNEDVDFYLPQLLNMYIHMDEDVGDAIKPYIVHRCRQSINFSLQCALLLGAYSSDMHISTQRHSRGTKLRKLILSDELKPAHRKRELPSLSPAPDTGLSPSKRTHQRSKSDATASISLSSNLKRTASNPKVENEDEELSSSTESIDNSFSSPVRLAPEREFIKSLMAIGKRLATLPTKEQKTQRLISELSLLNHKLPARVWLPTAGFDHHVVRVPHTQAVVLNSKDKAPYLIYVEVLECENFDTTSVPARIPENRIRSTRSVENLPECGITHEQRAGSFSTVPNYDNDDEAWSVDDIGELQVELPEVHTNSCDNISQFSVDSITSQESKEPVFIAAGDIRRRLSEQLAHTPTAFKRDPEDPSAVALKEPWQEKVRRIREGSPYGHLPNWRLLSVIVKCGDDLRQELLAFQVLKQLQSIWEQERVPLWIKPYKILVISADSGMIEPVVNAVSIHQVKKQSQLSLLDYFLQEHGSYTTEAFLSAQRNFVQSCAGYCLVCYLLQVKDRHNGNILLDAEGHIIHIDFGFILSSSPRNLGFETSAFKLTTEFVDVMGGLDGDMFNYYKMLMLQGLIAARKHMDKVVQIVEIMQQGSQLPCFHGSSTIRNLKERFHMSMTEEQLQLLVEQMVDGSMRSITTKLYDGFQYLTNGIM

Tests used:
various tumor cell lines = conditions: panel of 8 cell lines
[1] = system: human small cell lung cancer cell line H446; assay: Anti-tumor efficacy in H446 xenograft model in nude mice; conditions: for tumor growth inhibition (TGI): every two days, H446 xenograft nude mice; for inhibitory effect against the growth of human lung cancer H446 xenografts in nude mice: result in words
[2] = Structural stability under acidic conditions
A549 = assay: Anti-proliferative activity, CCK 8 assay; conditions: read-out: Anti-proliferative activity (IC50, µM) A549; A549, 48 h incubation
DU145 = assay: Anti-proliferative activity, CCK 8 assay; conditions: read-out: Anti-proliferative activity (IC50, µM) DU145; DU145, 48 h incubation
H446 = assay: Anti-proliferative activity, CCK 8 assay; conditions: read-out: Anti-proliferative activity (IC50, µM) H446; H446, 48 h incubation
HCT116 = assay: Anti-proliferative activity, CCK 8 assay; conditions: read-out: Anti-proliferative activity (IC50, µM) HCT116; HCT116, 48 h incubation
HT29 = assay: Anti-proliferative activity, CCK 8 assay; conditions: read-out: Anti-proliferative activity (IC50, µM) HT29; HT29, 48 h incubation
MCF-7 = assay: Anti-proliferative activity, CCK 8 assay; conditions: read-out: Anti-proliferative activity (IC50, µM) MCF-7; MCF-7, 48 h incubation
MDA-MB-231 = assay: Anti-proliferative activity, CCK 8 assay; conditions: read-out: Anti-proliferative activity (IC50, µM) MDA-MB-231; MDA-MB-231, 48 h incubation
PC3 = assay: Anti-proliferative activity, CCK 8 assay; conditions: read-out: Anti-proliferative activity (IC50, µM) PC3; PC3, 48 h incubation
PI4KIIIβ = PI4KIIIβ (Homo sapiens, UniProt Q9UBF8); assay: PI4KIIIβ inhibition assay (ADP-Glo Luminescent Kinase Assay); conditions: read-out: PI4KIIIβ inhibitory activity (IC50); 50 µM PIP2, 25 µM ATP, room temperature 1 h

SMILES | cell lines with nanomolar-level inhibitory activity (various tumor cell lines) | tumor growth inhibition (TGI) ([1]; 20 mg/kg, injection) | tumor growth inhibition (TGI) ([1]; 30 mg/kg, injection) | inhibitory effect against the growth of human lung cancer H446 xenografts in nude mice [1] | structural stability under acidic conditions [2] | tumor growth inhibition (TGI) ([1]; oral dose of 150 mg/kg) | IC50 (A549) | IC50 (DU145) | IC50 (H446) | IC50 (HCT116) | IC50 (HT29) | IC50 (MCF-7) | IC50 (MDA-MB-231) | IC50 (PC3) | IC50 (PI4KIIIβ)
CCCCCC(=O)Nc1nc(C)c(-c2ccc(OC)c(S(=O)(=O)NCCNC(=O)OC(C)(C)C)c2)s1 | 6 out of 8 | 25.7% | 37.1% | significant inhibitory effect | structural instability | – | – | – | – | – | – | – | – | – | –
CCCCCC(=O)Nc1nc(C)c(-c2ccc(OC)c(S(=O)(=O)NCc3ccc(F)cc3F)c2)s1 | – | – | – | significant inhibitory effect | – | 42.2% | – | – | – | – | – | – | – | – | –
Cc1nc(NC(=O)CC(C)C)sc1-c1ccc(Cl)c(S(=O)(=O)NCCNC(=O)OC(C)(C)C)c1 | – | – | – | – | – | – | 0.92 µM | 0.48 µM | 0.071 µM | 0.53 µM | 0.094 µM | 0.86 µM | 0.77 µM | 0.37 µM | 0.089 µM
COc1ccc(-c2sc(NC(=O)CCCCC(C)=O)nc2C)cc1S(=O)(=O)NCCNC(=O)OC(C)(C)C | – | – | 30.2% | – | structural instability | – | – | – | – | – | – | – | – | – | –
CC(=O)Nc1nc(C)c(-c2ccc(Cl)c(S(=O)(=O)NCCO)c2)s1 | – | – | – | – | – | – | > 4 µM | > 4 µM | 0.68 µM | 3.73 µM | 1.94 µM | 3.3 µM | 3.12 µM | 3.53 µM | –
COc1ccc(-c2sc(NC(C)=O)nc2C)cc1S(=O)(=O)Nc1ccc(F)cc1F | – | – | – | – | – | – | > 4 µM | > 4 µM | > 4 µM | > 4 µM | > 4 µM | > 4 µM | > 4 µM | > 4 µM | 0.015 µM
CCCCCC(=O)Nc1nc(C)c(-c2ccc(OC)c(S(=O)(=O)NCC(C)(C)O)c2)s1 | – | – | – | – | – | – | > 4 µM | > 4 µM | > 4 µM | > 4 µM | > 4 µM | > 4 µM | > 4 µM | > 4 µM | 0.0049 µM
CCCCCC(=O)Nc1nc(-c2ccc(OC)c(S(=O)(=O)NCc3ccc(F)cc3F)c2)c(C)s1 | – | – | – | – | – | – | > 4 µM | > 4 µM | > 4 µM | > 4 µM | > 4 µM | > 4 µM | > 4 µM | > 4 µM | > 0.5 µM
CC(=O)Nc1nc(C)c(-c2ccc(Cl)c(S(=O)(=O)Nc3ccc(C)c(O)c3)c2)s1 | – | – | – | – | – | – | – | – | – | – | – | – | – | – | 0.038 µM
CCCCCC(=O)Nc1nc(C)c(-c2ccc(OC)c(S(=O)(=O)NCc3ccc(F)c(Cl)c3)c2)s1 | – | – | – | – | – | – | – | – | – | – | – | 0.19 µM | – | 0.19 µM | –
